Laboratory results reported in article PMC8164609 (Environmental Science and Pollution Research International, 2021).

System: MCF-7 cells
Assay: In vitro micronucleus assay for cytokinesis block
Assay type: cell-based, human
Conditions: 24 h; for Micronuclei per 1000 binucleated cells, Replicates: single replicate values

Compound: O=c1c(-c2ccc(O)cc2)coc2cc(O)cc(O)c12 [genistein]
- Micronuclei per 1000 binucleated cells, Average (10^−7 M): 17 per 1000 binucleated cells
- Micronuclei per 1000 binucleated cells, Replicates (10^−7 M): 17 per 1000 binucleated cells and 15 per 1000 binucleated cells and 19 per 1000 binucleated cells
- Micronuclei per 1000 binucleated cells, Average (10^−8 M): 15.33 per 1000 binucleated cells
- Micronuclei per 1000 binucleated cells, Replicates (10^−8 M): 14 per 1000 binucleated cells and 16 per 1000 binucleated cells (2×)

“And” between values parts separate entries of the source, which are not always exact repeats. Equal entries are not always repeated.
